In patent US20240279332A1 (Amgen, published 2024):
Residue numbers refer to the chain shown, from its start. Blank lines part the entries; values can stand above or below the binder they belong to.

The chains behind the UniProt entries cited, without tags or fusion partners. Residues count along the entry.
UniProt Q9NP99, 21-234 limits assumed: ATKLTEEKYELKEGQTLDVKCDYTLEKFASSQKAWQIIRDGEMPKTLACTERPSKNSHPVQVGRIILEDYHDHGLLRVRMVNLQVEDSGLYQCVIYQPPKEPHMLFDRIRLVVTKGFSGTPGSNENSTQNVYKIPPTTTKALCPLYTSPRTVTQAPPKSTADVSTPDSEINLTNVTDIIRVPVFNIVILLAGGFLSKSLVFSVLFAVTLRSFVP
UniProt Q9NP99, 21-205 limits assumed: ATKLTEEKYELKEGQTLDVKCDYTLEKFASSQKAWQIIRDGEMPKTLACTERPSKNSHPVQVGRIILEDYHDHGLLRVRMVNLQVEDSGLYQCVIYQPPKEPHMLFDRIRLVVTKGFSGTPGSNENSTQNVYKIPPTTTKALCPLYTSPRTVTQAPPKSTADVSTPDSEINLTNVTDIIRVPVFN

Assays:
[1] = target: T1, human TREM-1 (TrigGering Receptor Expressed on Myeloid cells 1) on cells (human, UniProt Q9NP99 21-234); experiment: cell-based or functional assay
[2] = target: T1, human TREM-1 (TrigGering Receptor …); experiment: FACS on HEK293 co-transfected with human TREM-1 and DAP12; hybridoma supernatant 2.5 ug/mL; geomean fold over irrelevant control antibody
Procedure: (§1) The TREM-1-specific antibodies identified in primary screening were evaluated for cross-reactivity to cynomolgus TREM-1, as well as specificity to TREM-1 and not DAP12. TREM-1 hybridoma supernatants were tested for binding to human or cyno TREM-1 transiently expressed on HEK293 cells by FACS (harvests 1-6) or by […]™ (harvests 8-9). […] The following day, transfected HEK293 cells were transferred into 96-well FACS plates at 50,000 cells/well and incubated with normalized hybridoma supernatants at a final concentration of 2.5 μg/mL for 1 hour at 4° C. Cells were then pelleted by centrifugation, supernatant was removed by flicking, and wells were washed twice with 200 μL/well of FACS buffer. 5 μg/mL ALEXA FLUOR® 647 Goat anti-Human IgG Fc (Jackson ImmunoResearch) secondary detection antibody and 2.5 μg/mL 7-aminoactinomycin-D (Sigma) viability stain were incubated with the cells for 15 minutes at 4° C. Cells were pelleted by centrifugation, supernatant was removed by flicking, and wells were washed once more with 200 μL/well of FACS buffer. TREM-1 hybridoma supernatants showing human TREM-1- or cyno TREM-1-specific binding was detected by FACS on the BD ACCURI™ 06 flow cytometer with Intellicyt autosampler. The data was reported as geomean (GM) fold over irrelevant control antibody binding.

cyno TREM-1 on cells = target: T2, cyno TREM-1 on cells (cynomolgus monkey, UniProt A0A2K5VHG8 21-233); experiment: FACS on HEK293 co-transfected with cyno TREM-1 and DAP12; hybridoma supernatant 2.5 ug/mL; geomean fold over irrelevant control antibody
T2 construct: whole, on cells; On HEK293 cells co-transfected with DAP12, or native on cynomolgus PBMCs; also called cynomolgus TREM-1; TREM-1 receptor in cynomolgus monkey PBMCs
T2 sequence: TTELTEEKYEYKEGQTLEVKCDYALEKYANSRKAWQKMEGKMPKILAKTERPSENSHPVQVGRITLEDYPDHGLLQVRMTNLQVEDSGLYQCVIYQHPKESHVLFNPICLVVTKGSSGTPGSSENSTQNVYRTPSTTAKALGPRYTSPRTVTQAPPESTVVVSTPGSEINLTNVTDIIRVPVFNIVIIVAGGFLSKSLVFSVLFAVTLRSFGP
Procedure: as §1

[3] = target: T3, biotinylated human TREM-1-His antigen (human, UniProt Q9NP99 21-205, biotinylated in-house, site not stated); experiment: limiting antigen assay, FACS on LumAvidin beads coated with 7.5 ng/mL biotinylated human TREM-1-His; antibody 5 ug/mL
T3 construct: Soluble TREM-1; also called b-huTREM-1-His; Soluble TREM1
Excerpt: TREM-1 Antibody Relative Affinity Ranking by Limiting Antigen Assay: TREM1 hybridoma supernatants were affinity-ranked within the panel by their binding kinetics to soluble TREM-1 in a limiting antigen assay using LUMAVIDIN® beads (Luminex) on FACS. Briefly, in-house biotinylated human TREM-1-His antigen (b-huTREM-1-His) was serially diluted in FACS buffer and combined with an equal volume of LUMAVIDIN® beads (different uniquely-barcoded bead for each antigen concentration), resulting in a 5-point 2-fold serial dilution series starting from a final b-huTREM-1-His antigen concentration of 30 ng/mL. The antigen-bead mixtures were plated across 3 wells in a 96-well FACS plate, then incubated for 30 minutes at room temperature protected from light. Beads were then pelleted by centrifugation, supernatant was removed by flicking, and wells were washed twice with 200 μL/well of FACS buffer. The different beads were then resuspended, pooled, and diluted in STABILGUARD® Immunoassay Stabilizer (SurModics) to block non-specific binding. Normalized TREM-1 hybridoma supernatants were combined with an equal volume of bead mixture in a FACS plate at a final concentration of 5 μg/mL test antibody to 0.5 μL beads/well. The plates were then shaken and incubated overnight for ˜18 hours at room temperature. Beads were then pelleted by centrifugation, supernatant was removed by flicking, and wells were washed twice with 200 μL/well of FACS buffer. ALEXA FLUOR® 488 Goat anti-Human IgG Fc secondary detection antibody (Jackson ImmunoResearch) was added at 5 μg/mL to the plates, shaken, and incubated for 15 minutes at room temperature protected from light. Beads were washed with FACS buffer, pelleted by centrifugation, supernatant was removed by flicking, and washed once more with FACS buffer. The beads were then resuspended and run on the BD ACCURI™ C6 Flow Cytometer with Intellicyt […]® autosampler.
The antibody binding signal correlates with antibody affinity; the degree of antibody binding to the target antigen TREM-1 correlates with the measured fluorescent intensity and thus allows a relative comparison of affinities across the panel.

Fab IC50-pSYK Assay (Trial 1), human TREM-1/Dap12-HEK293, PGLYRP1/PGN [1]: 112 pM
Fab IC50-pSYK Assay (Trial 2), human TREM-1/Dap12-HEK293, PGLYRP1/PGN [1]: 569 pM
B3: 61B12 Fab (Fab, V domains shown)
VH: QVQLVQSGAEVTKPGASVKVSCKASGYTFTRYDINWVRQATGQGLEWMGWMNPNSGNSGSVQKFRGRVTMTRNTSITTVYMELSSLRSDDTAVYYCARGGISSSWHWAFDIWGQGTMVTVSS
VL: DIQMTQSPSSLSASVGDRVTITCQASQDINNHLNWYQQKPGKAPKLLIYGAYTLETGVPSRFSGSGSGTDFTFTISSLQPEDIATYYCQQYDKLPLTFGGGTKVEIK

Fab IC50-pSYK Assay (Trial 1), human TREM-1/Dap12-HEK293, PGLYRP1/PGN [1]: 387 pM
Fab IC50-pSYK Assay (Trial 2), human TREM-1/Dap12-HEK293, PGLYRP1/PGN [1]: 186 pM
B4: 61G5 Fab (Fab, V domains shown)
VH: QVQLVQSGAEVKKPGASVKVSCKASGYTFTSYDINWVRQATGQGLEWMGWMNPNSGNSGSVKKFRDRVTMTRNTSISTAYMELSSLRSEDTAVYYCVRLIGYSSAWKWSFQHWGQGTLVTVSS
VL: DIQMTQSPSSLSASVGDRVTITCQASRDISKYLNWYQQKPGKAPKLQIYDASNLETGVPSRFSGSGSGTDFTFTISSLQPEDIATYYCQHYDNIPITFGQGTRLEIK

Fab IC50-pSYK Assay (Trial 1), human TREM-1/Dap12-HEK293, PGLYRP1/PGN [1]: 45.2 pM
Fab IC50-pSYK Assay (Trial 2), human TREM-1/Dap12-HEK293, PGLYRP1/PGN [1]: 38 pM
B5: 63F8 Fab (Fab, V domains shown)
VH: QVQLVQSGAEVKKPGASVKVSCKASGYTFTSYDINWVRQATGQGLEWMGRMNPKSGNAGYVQNFRGRVTMTRNTSISTAYMELSSLRSEDTAVYYCARGGRTSIWSFVFDYWGQGTLVTVSS
VL: B3 VL with N30S, N31K, G50D, A51T, Y52S, T53N, Y87N

Fab IC50-pSYK Assay (Trial 1), human TREM-1/Dap12-HEK293, PGLYRP1/PGN [1]: 229 pM
Fab IC50-pSYK Assay (Trial 2), human TREM-1/Dap12-HEK293, PGLYRP1/PGN [1]: 70 pM
B6: 64D7 Fab (Fab, V domains shown)
VH: QVQLVQSGAEVKKPGASVKVSCKASGYTFTSYDINWVRQATGQGLEWMGWMNPNRGNTGYVKKFQGRVTMTRNTSISTAYMELSSLRSEDTAVYYCARRRAVYRSSWEWYFDLWGRGTLVTVSS
VL: DTQMTQSPSSLSASEGDRVTITCQASQDIFNDLNWYQEKPGKAPKLLIYHASNLETGVPSRFSGSGSGTDYTFTISSLQPEDIATYYCQQYGNLPLTFGGGTKVEIK

Fab IC50-pSYK Assay (Trial 1), human TREM-1/Dap12-HEK293, PGLYRP1/PGN [1]: 4660 pM
B11: 66B8 Fab (Fab, V domains shown)
VH: QVQLVQSGAEVKKPGASVKVSCKASGYTFTGYYMHWVRQAPGQGLEWMGWFKPNSGVTNYAQKFQGRVTMSRDTSISTAYMELSSLRSDDTAVYYCARAGYSTSWKDWFDPWGQGTLVTVSS
VL: DIQMTQFPSSVSASVGDRVTITCRASQGISRWLAWYQQKQGKAPKLLIYMVSSLQSGVPSRFSGSGSGTDFTLTISSLQPEDFATYYCQQSHNFPITFGQGTRLDIK

Human TREM1 GM Fold [2]: 719 fold
Cyno TREM1 GM Fold (cyno TREM-1 on cells): 2340 fold
Soluble TREM1 7.5 ng/mL (FACS Geomean) [3]: 25300
B13: 57F5 (antibody, V domains shown)
VH: EVQLLESGGGLVQPGGSLRLSCAASGFTFSSYAMTWVRQAPGRGLQWVSTISGSGSNTYYADSVKGRFTISRDNSKNTLYLQMSSLRAEDTAVYYCAKEGGSNRYFHHWGQGTLVTISS
VL: DIQMTQSPSSLSASVGDRVTITCRASQSISSNLNWYQQKPGKAPKLLISAASNLQSGVPSRFSGSESGTDFTLTISSLQSEDFATYYCQQSDSLPLTFGGGTKVEINR
notes: also called TREM1 antibody 57F5

Further lines, the binder ahead of its results:

B1: 57C10 Fab (Fab, V domains shown)
VH: QVQLVQSGAEVKKPGASVKVSCKASGYTFTRYDINWVRQATGQGLEWMGWLNPNSGNTGQTQKFRGRVTMTRNTSINTAYMELSSLRSEDTAVYYCARGGYTSAWRWYFDLWGRGTLVTVSS
VL: B3 VL with G50D, A51V, Y52S, T53N, R61S, S67C, Y87F, K107E
Fab IC50-pSYK Assay (Trial 1), human TREM-1/Dap12-HEK293, PGLYRP1/PGN [1]: 273 pM
Fab IC50-pSYK Assay (Trial 2), human TREM-1/Dap12-HEK293, PGLYRP1/PGN [1]: 583 pM

B2: 30H2 Fab (Fab, V domains shown)
VH: EVQVLESGGGLVQPGESLRLSCTASGFTFNAYAMSWVRQAPGKGLEWVSTISGSGSTTYYADSVKGRFTISRDNSKNTLDLQMNSLRAADTAVYYCAKVAGSNFFFDHWGQGTLVTVSS
VL: EIVMTQSPATLSVSPGERATLSCRASQSINSNLAWYQQKPGQAPRLLIYGAYTRATGIPDRFSGSGSGTEFTLTISSLQSEDFAVYYCQEFIMWPPWTFGLGTQVEIK
Fab IC50-pSYK Assay (Trial 1), human TREM-1/Dap12-HEK293, PGLYRP1/PGN [1]: 467 pM
Fab IC50-pSYK Assay (Trial 2), human TREM-1/Dap12-HEK293, PGLYRP1/PGN [1]: 374 pM

B7: 34D1 Fab (Fab, V domains shown)
VH: B1 VH with L51M, T58S, Q60S, T61V, N77H, T78I, A104S
VL: B4 VL with T20N, R27Q, S30R, Y32H, K45N, Q47L, S52A, D70A, D92A, I94L
Fab IC50-pSYK Assay (Trial 1), human TREM-1/Dap12-HEK293, PGLYRP1/PGN [1]: 314 pM
Fab IC50-pSYK Assay (Trial 2), human TREM-1/Dap12-HEK293, PGLYRP1/PGN [1]: 309 pM

B8: 44A5 Fab (Fab, V domains shown)
VH: EVQLLESGGGLVQPGGSLRLSCAASGFTFSTYAMNWVRQAPGKGLEWVSTVSGSGRPTYYADSVKGRFTISRDNSKNTLYLQMNSLRAEDTAVYYCAKAYYSNYLFDYWGQGTLVTVSS
VL: EIVMTQSPAILSVSPGERATLSCRASQSVSSNLAWYQQKPGQAPRLLIYGASTRATGVPARFSGGGSGTDFTLTISSLQSEDFAVYYCQHCKTWPPLTFGGGTKVDLK
Fab IC50-pSYK Assay (Trial 1), human TREM-1/Dap12-HEK293, PGLYRP1/PGN [1]: 189 pM
Fab IC50-pSYK Assay (Trial 2), human TREM-1/Dap12-HEK293, PGLYRP1/PGN [1]: 325 pM

B9: 46H7 Fab (Fab, V domains shown)
VH: EVQLLESGGGMVQPGGSLRLSCAVSGFTFSRYAMSWVRQAPGKGLEWVSEMRGSSGSTYYADSVKGRFTISRDNSKNTLYLQMNSLRVEDTAIYYCAKEFSSNSLFDYWGQGTLVTVSS
VL: B2 VL with I29V, Q42R, Y52S, D60A, E90Q, I92Y, M93N, L101Q, Q104K
Fab IC50-pSYK Assay (Trial 1), human TREM-1/Dap12-HEK293, PGLYRP1/PGN [1]: 43.3 pM
Fab IC50-pSYK Assay (Trial 2), human TREM-1/Dap12-HEK293, PGLYRP1/PGN [1]: 117 pM

B10: 49A2 Fab (Fab, V domains shown)
VH: EVQLVESGGGLVQPGGSLRLSCAASGFTFSSNWMSWVRQAPGKGLDWMASMKQDGSEIYYVDSVKGRFTISRDNAKNSLHLQMNSLRAEDTAVYYCVRGGWRFESWGQGALVTVSS
VL: EIVMTQSPATLSVSPGERATLSCRASQSVSSNLAWYQQKSGQAPRLLIYGASIRATGIPARVSGSGSGTEFTFTISSLQSEDFAVYYCQQYKNWPLTLGGGTKVEIK
Fab IC50-pSYK Assay (Trial 1), human TREM-1/Dap12-HEK293, PGLYRP1/PGN [1]: 1180 pM
Fab IC50-pSYK Assay (Trial 2), human TREM-1/Dap12-HEK293, PGLYRP1/PGN [1]: 787 pM

B12: 50A12 Fab (Fab, V domains shown)
VH: EVQLVESGGGLVQPGGSLRLSCAASGFTFSSYWMSWVRQAPGKGLEWVANIKQDGSEEYYVDSVKGRFTISRDNAKNSLFLQMNSLRAEDTAVYYCARDYGDSFDYWGQGTLVTVSS
VL: DIQMTQSPSSVSASVGDRVTITCRASQGIRKWLAWYQQKPGRAPKLLIYAASRLQSGVPSRFSGSGSGTDFTLTISSLRPEDFATYYCLQAHGFPWTFGQGTKVEIK
Fab IC50-pSYK Assay (Trial 1), human TREM-1/Dap12-HEK293, PGLYRP1/PGN [1]: 2850 pM
